Laboratory results as given in US20220143226A1, “USE OF TRIAZOLO[4,5-D]PYRIMIDINE DERIVATIVES” (UNIVERSITÉ DE LIÈGE, priority 2019, published 2022).

How the values were obtained:
Type in all cases: cell-based, human
THP1 cells = assay: Radiotracer uptake into THP1 cells
Method: (§1) THP1 (ATCC® TIB-202™) and HL60 (ATCC® CCL-240™) cell lines were grown in RPMI 1640 tissue culture medium supplemented with L-glutamine, 10% foetal calf serum and 1% penicillin/streptomycin at 37° C. and 5% CO2. HT29 cell line (ATCC® HTB-38) was grown in McCoy's 5A medium and 10% foetal bovine serum at 37° C. and 5% CO2.
(§2) Non-adherent cell lines (HL60, THP1; 1×10^6 cells ml^−1) were harvested, washed and resuspended in 1 ml tissue culture medium. The adherent cells HT29 were maintained in 6-well plates at 80% confluence.
(§3) Bacteria and non-adherent cells were harvested by centrifugation (600×g, 5 min) and washed three times by successive centrifugations. Cell supernatants were collected in scintillation vials. After washing, the cells were transferred into scintillation vials. Adherent cells were washed three times with fresh medium (McCoy's 5A medium plus 10% foetal bovine serum). Supernatants were collected into scintillation vials. Adherent cells were detached by trypsin treatment and placed into scintillation vials. The scintillation vials for cells and supernatants were counted by gamma counter. Results were obtained as counts per min. Results were normalised for controls (no cells) and by calculating the percentage of activity in the cell containing scintillation vials compared with the total counts (cells and supernatant combined).

HT29 cells = assay: Radiotracer uptake into HT29 cells
Method: as §1, §2, §3

HL60 cells = assay: Radiotracer uptake into HL60 cells
Method: as §1, §2, §3

^18F-fluorodeoxyglucose [^18F-FDG, reference compound]
uptake: uptake into THP1 (leukocytic) cells (THP1 cells) | uptake into HT29 (tumor) cells (HT29 cells) | uptake into HL-60 (leukocytic) cells (HL60 cells)
